Measurements: ChEMBL document CHEMBL3632592, “Identification of Highly Promising Antioxidants/Neuroprotectants Based on Nucleoside 5'-Phosphorothioate Scaffold. Synthesis, Activity, and Mechanisms of Action” (J Med Chem, 2015)

Experiment: Potency index, ratio of EDTA IC50 to compound IC50 for inhibition of Fe2+-induced DMPO-OH adduct formation from H2O2

Row | Structure (SMILES) | Ratio IC50
1 | Nc1ncnc2c1ncn2[C@@H]1O[C@H](COP(=O)(S)OP(=O)(O)O)[C@@H](O)[C@H]1O (stereo in doubt; 6A) | 2.5
2 | Nc1nc(Cl)nc2c1ncn2[C@@H]1O[C@H](COP(=O)(O)OP(=O)(O)S)[C@@H](O)[C@H]1O (stereo partly specified) | 2.5
3 | Nc1nc(Cl)nc2c1ncn2[C@@H]1O[C@H](COP(=O)(S)OP(=O)(O)O)[C@@H](O)[C@H]1O (stereo in doubt; 8A) | 2.5
4 | Nc1ncnc2c1ncn2[C@@H]1O[C@H](COP(=O)(S)OP(=O)(O)O)[C@@H](O)[C@H]1O (stereo in doubt; 6B) | 2.5
5 | Nc1nc(Cl)nc2c1ncn2[C@@H]1O[C@H](COP(=O)(S)OP(=O)(O)OP(=O)(O)O)[C@@H](O)[C@H]1O (stereo in doubt; 9B) | 2.5
6 | Nc1ncnc2c1ncn2[C@@H]1O[C@H](COP(=O)(O)OP(=O)(O)S)[C@@H](O)[C@H]1O (stereo partly specified) | 2.5
7 | CSc1nc(N)c2ncn([C@@H]3O[C@H](COP(=O)(O)OP(=O)(O)S)[C@@H](O)[C@H]3O)c2n1 (stereo partly specified) | 2.5
8 | CSc1nc(N)c2ncn([C@@H]3O[C@H](COP(=O)(S)OP(=O)(O)O)[C@@H](O)[C@H]3O)c2n1 (stereo in doubt; 7B) | 2.5
9 | Nc1nc(Cl)nc2c1ncn2[C@@H]1O[C@H](COP(=O)(S)OP(=O)(O)OP(=O)(O)O)[C@@H](O)[C@H]1O (stereo in doubt; 9A) | 2.5
10 | Nc1nc(Cl)nc2c1ncn2[C@@H]1O[C@H](COP(=O)(S)OP(=O)(O)O)[C@@H](O)[C@H]1O (stereo in doubt; 8B) | 2.5
11 | CSc1nc(N)c2ncn([C@@H]3O[C@H](COP(=O)(S)OP(=O)(O)O)[C@@H](O)[C@H]3O)c2n1 (stereo in doubt; 7A) | 2.5
